Drawing on ChEMBL document CHEMBL1130119, “2-Carbomethoxy-3-aryl-8-oxabicyclo[3.2.1]octanes: potent non-nitrogen inhibitors of monoamine transporters” (J Med Chem, 1997), this text covers IC50 for one molecule.

Sequences of proteins named here, by UniProt entry; tags and fusion partners are left off.
UniProt P31645, whole entry: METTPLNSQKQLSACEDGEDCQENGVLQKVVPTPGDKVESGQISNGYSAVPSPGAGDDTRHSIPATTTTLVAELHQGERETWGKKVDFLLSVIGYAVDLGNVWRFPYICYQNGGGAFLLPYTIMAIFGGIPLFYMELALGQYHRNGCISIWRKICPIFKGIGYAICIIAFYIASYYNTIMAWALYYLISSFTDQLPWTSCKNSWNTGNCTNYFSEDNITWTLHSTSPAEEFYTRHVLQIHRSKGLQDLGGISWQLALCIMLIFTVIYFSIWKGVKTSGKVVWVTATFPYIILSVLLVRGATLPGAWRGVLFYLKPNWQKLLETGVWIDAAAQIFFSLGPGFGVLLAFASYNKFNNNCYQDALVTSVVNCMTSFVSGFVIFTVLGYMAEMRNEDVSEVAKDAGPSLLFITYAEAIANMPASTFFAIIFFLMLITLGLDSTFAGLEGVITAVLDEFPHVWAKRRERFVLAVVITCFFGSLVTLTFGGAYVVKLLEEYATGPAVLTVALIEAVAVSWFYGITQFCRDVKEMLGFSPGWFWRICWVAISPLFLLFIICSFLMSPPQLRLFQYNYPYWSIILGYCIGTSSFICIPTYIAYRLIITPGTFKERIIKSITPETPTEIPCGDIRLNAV

The assay has as its target Sodium-dependent serotonin transporter (Homo sapiens, UniProt P31645). Put plainly: Inhibition of [3H]citalopram binding to the serotonin transporter (5-HT) in monkey caudate-putamen. In kind it is tissue-based, Cercopithecidae. Particulars: target entry is the homologue from another species.

In turn, `COC(=O)[C@@H]1C2CC[C@H](C[C@@H]1c1ccccc1)N2C` (stereo in doubt; 19a) had a 50% inhibitory concentration (IC50) of 21 nM.

A word on the IC50: it is the concentration at which inhibition is half-maximal.
